Test system: mouse
Assay: Potentialisation of the group toxicity to amphetamine
Format: in vivo
Settings: group toxicity in respect of amphetamine
Procedure: The different tests which are carried out on mice by the known techniques comprise:
the potentialisation of the group toxicity to amphetamine,
(3) Group toxicity in respect of amphetamine

## pGlu--His--DA [pGlu-His-dopamine]
  dosage which causes 50% mortality of the animals: 1120 mg/kg
